Patent US7238652B2, “Personal care compositions comprising alkyl phosphate surfactants and selected weak acid auxiliary agents” (priority 2005, dated 2007)

Test system: Zein protein
Assay: Zein solubilization test (mildness / irritation potential)
Settings: pH 6.0, 5% total surfactant solutions, Zein and surfactant contacted for 24 hours
Method: • 1. Prepare a 5 wt. % aqueous solution of the surfactant. If the natural pH of the system differs from that desired, adjust by incremental addition of acid or base. • 2. Mix 4 grams of Zein protein in 40 grams of the surfactant solution. Allow the mixture to stand at room temperature for 24 hours with frequent vigorous shaking. • 3. Filter the supernatant of the Zein/surfactant mixture using a syringe filter with a 0.45 micron Nylon membrane. Dilute the filtered solution 100-fold with 2% SDS solution (i.e., 0.1 gram filtered solution diluted in 10 grams of 2% SDS solution). As a reference, also prepare a diluted surfactant solution by mixing 0.1 grams of 5 wt. % surfactant solution with 10 grams of 2% SDS solution. • 4. The Zein concentration is determined using a UV/VIS spectrophotometer operated in the range 200-350 nm at a scanning rate of 800 nm/min, using a 2% SDS solution as the background.

Coco aminopropyl betaine [Coco aminopropyl betaine (CAPB)]
Percent Zein solubilized: 3.28%
